Screening data from PubChem.
SIRT5 block: sirtuin-5 (human) deacylase inhibition. AID 652115. inhibition, % at 15 µM. Purified SirT5, succinyl-peptide AMC, trypsin-coupled fluorescence. hit rate 1.1% among 330,000. Q9NXA8; in the data active = inhibition above about 15%
FGF22 binding: FGF22 (human) thermal shift binding; Q9HCT0; AID 651658; hit rate 1.5% among 340,000; recombinant FGF22 thermal shift, SYPRO orange fluorescence; percent of sucrose octasulfate shift, DMSO zero; activity (Tm shift, normalised), % at 9.99 µM;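 active = mean Tm shift, scaled 0 neutral to 100 positive control, at about 1.3% or above, every replicate too, limit read from the data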
ERp5 block: blocks human ERp5 reductase activity on insulin; Q15084; ERp5 insulin aggregation, absorbance 650 nm, 90 min; inhibition, % at 9.99 µM; hit rate 0.05% among 350,000;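 active = mean replicate inhibition above about 25%, with every replicate also reaching it, limit read from the data, passing the limit was not always enough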
PDI inh: inhibitors of human protein disulfide isomerase; hit rate 0.052% among 350,000; P07237; PDI insulin aggregation turbidity, A650, 90 min; inhibition, % at 10 µM;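 active = mean inhibition across replicates of 30% or more, whatever share of single replicates reach that level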
S100A4 MyoIIA: S100A4-myosin IIA interaction inhibition; P26447; S100A4/TAMRA-MyoIIA peptide fluorescence polarization; inhibition, % at 10.7 µM; hit rate 0.14% among 360,000; AID 652163;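 active = mean inhibition of at least 70% across replicates, with every replicate also reaching that level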
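Assay system: human S100A4 monomer with TAMRA-labelled myosin IIA peptide / Buffer or medium: Calcium-containing HEPES buffer, pH 7.2 / Reagent: TAMRA-labelled myosin IIA heavy-chain peptide probe, 5 nM / Compound: one dose per compound / Timing: polarization read 5 min after assay mix addition, stable 5–60 min / Benchmarks: neutral control DMSO, positive control TFP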
UUG fidelity: modulators of start codon recognition fidelity in yeast; AID 602363; activity score, % at 18.7 µM; S. cerevisiae UUG-firefly luciferase reporter, luminescence/redox ratio; actives 0.13% (n = 350,000);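 active = replicate mean at a twofold rise or more, about +100% in these data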;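 note: firefly luciferase made from a UUG start codon reports start codon fidelity; reporter light over untreated wells divided by growth signal over untreated wells; some hits fall short of that in this replicate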
An asterisk follows results filed as active; nt = not tested or not shown; + = active, no number. This is a sample that favours compounds with a hit; in the whole collection about 2.2% have one here.

1	CC(=O)Nc1ccc(S(=O)(=O)Nc2cccc(-n3cnnn3)c2)cc1
2	O=S(=O)(Nc1cccc(Cl)c1)c1cccc(-n2cnnn2)c1
3	COc1ccc(S(=O)(=O)N(C)C[C@@H]2OCCCC[C@@H](C)Oc3ccc(NC(=O)CCC(F)(F)F)cc3C(=O)N([C@@H](C)CO)C[C@@H]2C)cc1
4	COc1cccc2cc(C(=O)Nc3ccc(F)cc3)c(=Nc3ccc(C(=O)O)cc3)oc12
5	C[C@@H]1CN([C@H](C)CO)C(=O)Cc2cc(NS(=O)(=O)c3ccc(Cl)cc3)ccc2O[C@H]1CN(C)C
6	[O-][N+](=C(c1ccccc1)c1ccccc1)c1ccccc1
7	O=C(Cc1ccc([N+](=O)[O-])cc1)c1ccccc1
8	CCC(=O)Nc1ccc2c(c1)OC[C@@H](C)N(Cc1ccccc1OC)C[C@@H](C)[C@H](OC)CN(C)C2=O

| Compound | 1 | 2 | 3 | 4 | 5 | 6 | 7 | 8 |
| --- | --- | --- | --- | --- | --- | --- | --- | --- |
| S100A4 MyoIIA | 4 | -2 | -3 | -2 | -11 | -4 | 1 | 6 |
| ERp5 block | -4 | -5 | -8 | -2 | 0 | -7 | 2 | 3 |
| SIRT5 block | -5 | nt | 4 | 0 | -2 | nt | -5 | 2 |
| PDI inh | 17 | 4 | nt | 8 | nt | 1 | -5 | nt |
| FGF22 binding | 0 | 44* | 1 | 43* | 0 | 43* | 0 | 0 |
| UUG fidelity | nt | -13 | 49 | -13 | 1 | 8 | nt | 4 |

9	C[C@@H]1CN([C@H](C)CO)C(=O)c2cc(C#Cc3ccccn3)cnc2O[C@H]1CN(C)C(=O)c1cnccn1
10	Nc1ccc(Cl)cc1C(=O)c1ccc[nH]1
11	CC(C)CC#Cc1cnc2c(c1)C(=O)N([C@H](C)CO)C[C@@H](C)[C@H](CN(C)C(=O)CN1CCOCC1)O2
12	CCCN(C)C[C@@H]1Oc2ncc(-c3cccc(C#N)c3)cc2C(=O)N([C@H](C)CO)C[C@H]1C
13	COc1cc(C(=O)N2CCNCC2)cc(OC)c1OC
14	COc1ccc(C(=O)N2CCN(C(=O)c3cc(OC)c(OC)c(OC)c3)CC2)cc1
15	CO[C@H]1CN(C)C(=O)c2cc(NC(=O)c3ccccc3F)ccc2OC[C@H](C)N(C(=O)c2ccccc2F)C[C@H]1C
16	COc1ccccc1NC(=O)CN1CCN(C(=O)C2CCCO2)CC1 (stereo unspecified)

| Compound | 9 | 10 | 11 | 12 | 13 | 14 | 15 | 16 |
| --- | --- | --- | --- | --- | --- | --- | --- | --- |
| S100A4 MyoIIA | 23 | 0 | 6 | 2 | -10 | nt | -25 | -4 |
| ERp5 block | 12 | 0 | 4 | -5 | 3 | nt | -10 | -6 |
| SIRT5 block | 1 | nt | -12 | 1 | 21* | nt | -2 | 46* |
| PDI inh | nt | 2 | nt | nt | 3 | 1 | nt | 3 |
| FGF22 binding | 0 | 44* | 0 | 0 | 0 | nt | 0 | 0 |
| UUG fidelity | 11 | -10 | 2 | -5 | -5 | -12 | 19 | -3 |

17	COc1cccc(-c2ccc3c(c2)[C@H]2[C@H](CCN2C(=O)C2CCOCC2)[C@@H](CO)N3)c1
18	Clc1ccc(C2=NCCN2)cc1
19	COc1cccc2c1C(=O)c1c(O)c3c(c(O)c1C2=O)C[C@@](O)(C(=O)CO)C[C@@H]3O[C@H]1C[C@H](N)[C@@H](O)[C@H](C)O1
20	COc1cccc2c1C(=O)c1c(O)c3c(c(O)c1C2=O)C[C@@](O)(C(C)=O)C[C@@H]3O[C@H]1C[C@H](N)[C@H](O)[C@H](C)O1
21	COc1cccc2c1C(=O)c1c(O)c3c(c(O)c1C2=O)CC(O)(C(=O)CO)CC3OC1CC(N(C)C)C(O)C(C)O1 (stereo unspecified)
22	Cc1ccc(S(=O)(=O)NCC[C@H]2CC[C@H](NC(=O)NC(C)C)[C@@H](CO)O2)cc1
23	CS(=O)(=O)c1ccc(C(=O)OCc2nnc(-c3ccc(Cl)cc3)o2)cc1[N+](=O)[O-]
24	CN1C(=O)c2cc(NC(=O)Nc3ccc(Cl)cc3)ccc2OC[C@H]2O[C@H](CC(=O)O)CC[C@@H]21

| Compound | 17 | 18 | 19 | 20 | 21 | 22 | 23 | 24 |
| --- | --- | --- | --- | --- | --- | --- | --- | --- |
| S100A4 MyoIIA | -5 | 1 | nt | + | + | -5 | nt | -2 |
| ERp5 block | 4 | -1 | nt | 5 | -2 | -6 | nt | -4 |
| SIRT5 block | 0 | 112* | nt | 0 | 0 | 4 | nt | 0 |
| PDI inh | nt | -2 | 1 | 10 | 12 | nt | 89* | nt |
| FGF22 binding | 0 | 0 | nt | 0 | 0 | 0 | nt | nt |
| UUG fidelity | 5 | nt | -20 | -51 | nt | 0 | -15 | -2 |

25	N/C(CSc1ccc(Cl)cc1)=N\NC(=O)c1ccncc1
26	O=C(CSc1ccc(Cl)cc1)NCc1ccncc1
27	O=C(CSc1ccc(Cl)cc1)NC(=O)c1ccccc1
28	C[C@@H]1CN([C@H](C)CO)C(=O)c2cc(-c3ccccc3)cnc2O[C@H]1CN(C)C(=O)c1cccc(F)c1
29	O=C(C[C@@H]1CC[C@@H](NC(=O)c2cccc(F)c2)[C@@H](CO)O1)NCc1ccccc1
30	CO[C@H]1CN(C)C(=O)c2cc(NS(=O)(=O)CC(F)(F)F)ccc2OC[C@@H](C)N(CC2CCCCC2)C[C@@H]1C
31	Cc1ccc(N=C2C(=O)Nc3ccc(Br)cc32)cc1
32	Cc1ccc(C(F)(F)F)cc1NC(N)=S

| Compound | 25 | 26 | 27 | 28 | 29 | 30 | 31 | 32 |
| --- | --- | --- | --- | --- | --- | --- | --- | --- |
| S100A4 MyoIIA | -7 | -2 | -3 | nt | -12 | -3 | -2 | 10 |
| ERp5 block | 2 | -2 | 7 | nt | -5 | -9 | -6 | -3 |
| SIRT5 block | 1 | -2 | -3 | nt | -2 | 15 | 15* | 0 |
| PDI inh | -1 | -1 | 8 | nt | nt | nt | -3 | 10 |
| FGF22 binding | 43* | 43* | 0 | nt | 0 | 0 | 0 | 44* |
| UUG fidelity | nt | -5 | -10 | 1 | -15 | nt | -5 | nt |

Single records, from the list above. Screens in order: S100A4 MyoIIA, ERp5 block, SIRT5 block, PDI inh, FGF22 binding, UUG fidelity
O=C(C[C@@H]1CC[C@@H](NC(=O)c2cccc(F)c2)[C@@H](CO)O1)NCc1ccccc1 across the screens: -12, -5, -2, nt, 0, -15
CO[C@H]1CN(C)C(=O)c2cc(NS(=O)(=O)CC(F)(F)F)ccc2OC[C@@H](C)N(CC2CCCCC2)C[C@@H]1C across the screens: -3, -9, 15, nt, 0, nt
C[C@@H]1CN([C@H](C)CO)C(=O)c2cc(-c3ccccc3)cnc2O[C@H]1CN(C)C(=O)c1cccc(F)c1 across the screens: nt, nt, nt, nt, nt, 1

The list goes on.
33	CN(C)C(=O)[C@@H]1[C@@H](CO)[C@@H]2Cn3c(cccc3=O)[C@@H]2N1CC1CCCC1
34	O=C(C[C@@H]1C[C@H]2c3cc(NC(=O)Nc4ccc(C(F)(F)F)cc4)ccc3O[C@H]2[C@H](CO)O1)NCc1ccc2c(c1)OCO2
35	O=C(C[C@@H]1C[C@@H]2c3cc(NC(=O)Nc4ccc(C(F)(F)F)cc4)ccc3O[C@@H]2[C@@H](CO)O1)NCc1ccc2c(c1)OCO2
36	O=C(C[C@H]1C[C@H]2c3cc(NC(=O)Nc4ccc(C(F)(F)F)cc4)ccc3O[C@H]2[C@H](CO)O1)NCc1ccc2c(c1)OCO2
37	O=C(C[C@H]1C[C@@H]2c3cc(NC(=O)Nc4ccc(C(F)(F)F)cc4)ccc3O[C@@H]2[C@@H](CO)O1)NCc1ccc2c(c1)OCO2
38	CCN(C[C@@H]1[C@@H](c2ccccc2)[C@H](CO)N1C(=O)C1CC1)C(=O)NC1CCCC1
39	CCC(=O)NC[C@H]1[C@@H](c2ccccc2)[C@H](CO)N1C(=O)C1CCC1
40	CN(C[C@H]1[C@H](c2ccccc2)[C@@H](CO)N1C(=O)C1CCC1)C(=O)c1ccccn1
41	O=C(NC[C@@H]1[C@@H](c2ccccc2)[C@@H](CO)N1C(=O)Cc1cccnc1)C1CC1
42	CCN(C[C@@H]1[C@@H](c2ccccc2)[C@@H](CO)N1C(=O)C1CC1)C(=O)NC1CCCC1
43	C[C@@H]1CN([C@H](C)CO)C(=O)c2cc(Br)cnc2O[C@@H]1CN(C)C(=O)C1CCCCC1

| Compound | 33 | 34 | 35 | 36 | 37 | 38 | 39 | 40 | 41 | 42 | 43 |
| --- | --- | --- | --- | --- | --- | --- | --- | --- | --- | --- | --- |
| S100A4 MyoIIA | nt | -5 | -2 | 1 | -4 | 10 | 2 | 8 | 0 | 5 | 10 |
| ERp5 block | -4 | -3 | -5 | -1 | -2 | -9 | -3 | 0 | -5 | -4 | 2 |
| SIRT5 block | 0 | 27* | nt | 7 | 25* | 32* | 20* | 16* | 17* | -4 | -1 |
| PDI inh | nt | nt | nt | nt | nt | nt | nt | nt | nt | nt | nt |
| FGF22 binding | 0 | 0 | 0 | 0 | 1 | 0 | -1 | -1 | -1 | 0 | 0 |
| UUG fidelity | nt | -5 | -6 | -7 | -6 | -11 | 28 | -7 | 9 | -13 | -3 |
